Assay results taken from patent US20190145953A1, “METHODS AND MATERIALS FOR ASSESSING INTESTINAL PERMEABILITY” (Mayo Foundation for Medical Education and Research, priority 2016, published 2019).

Key:
duodenum biopsies = test: Ussing chamber flux across duodenal mucosal biopsies; parameters: species or system human
Procedure: (§1) The following was performed to determine duodenal and colonic barrier function and endotoxin activity in females with IBS-C in comparison to healthy. 16 IBS-C (Rome III) patients and 13 matched healthy volunteers (females) were given oral lactulose, ^12C mannitol and ^13C mannitol measured cumulatively over 0-2 and 8-24 hours by HPLC-MS. 10 biopsies were obtained from duodenum and sigmoid colon. Mucosal transepithelial resistance (TER), FITC dextran (4 KDa), and E. coli K12 BioParticle flux were measured in Ussing chambers. Endotoxin activity (blood) was measured towards gram-negative bacterial lipopolysaccharide. Unpaired 2-sided t-tests were used for comparisons.

sigmoid colon biopsies = test: Ussing chamber flux across sigmoid colon mucosal biopsies; parameters: species or system human
Procedure: as §1

FITC-dextran
3 hr FITC-dextran flux (ng/ml), mean (SEM) (duodenum biopsies; Healthy Volunteers (n=13)): 181.6(49.25) ng/ml | 3 hr FITC-dextran flux (ng/ml), mean (SEM) (duodenum biopsies; IBS-C (n=15)): 169.3(37.06) ng/ml | 3 hrs FITC-dextran flux (ng/ml), mean (SEM) (sigmoid colon biopsies; Healthy Volunteers (n=12)): 321.7(153.9) ng/ml | 3 hrs FITC-dextran flux (ng/ml), mean (SEM) (sigmoid colon biopsies; IBS-C (n=12)): 150.9(33.79) ng/ml
